Experimental findings from publication PMC8308721 (Pharmaceutics, 2021) are described below.

By UniProt entry, the sequences of proteins in these tests, tags left out.
UniProt P41143, whole entry: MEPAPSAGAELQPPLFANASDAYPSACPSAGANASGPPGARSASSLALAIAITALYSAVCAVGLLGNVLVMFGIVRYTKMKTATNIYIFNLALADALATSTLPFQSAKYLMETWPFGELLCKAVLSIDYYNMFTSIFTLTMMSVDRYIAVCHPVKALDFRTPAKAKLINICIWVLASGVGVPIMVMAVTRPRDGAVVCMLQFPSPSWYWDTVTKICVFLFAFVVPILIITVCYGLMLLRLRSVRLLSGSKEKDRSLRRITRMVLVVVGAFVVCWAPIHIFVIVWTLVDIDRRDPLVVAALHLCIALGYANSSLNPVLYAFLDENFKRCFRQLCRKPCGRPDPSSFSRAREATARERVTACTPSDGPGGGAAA

Data set [1] addresses human DOR (Homo sapiens, UniProt P41143). The conditions noted are these: analog at 6 nM, [3H]DADLE displacement.
Data set [2] is described as follows: pooled mouse dipotassium ethylenediaminetetraacetic acid containing pooled plasma. The note with it: 37 °C, up to 300 min.
The subject of data set [3] is female CD-1 mice. Kind of data set: Safety test in mice, escalating doses. The format is in vivo, mouse. The conditions noted are these: 650 mg/kg vs 13 mg/kg.
Data set [4] in a line: pooled human cerebrospinal fluid (CSF). The note with it: 37 °C, up to 300 min.

Values joined by “and” are separate entries in the source; they are usually repeats but may differ in a detail not shown here. Identical values can stand only once. “Also recorded” adds a separate entry of the source.

On to `COC(=O)[C@H](CC(C)C)NC(=O)[C@H](Cc1ccccc1)NC(=O)CNC(=O)CNC(=O)[C@H](Cc1ccc(O)cc1)NC(C)=O` [KK-14], for which the “Relative Binding to DOR Compared to Leu-ENK [%]” value (shortened to “Relative Binding … [%]”) in data set [1] was found to be 38 ± 4%. Take R^1HN-YGGFL-COOR^2 [KK-105]: the cleaved bond entry in data set [2] is on record as “C-terminal methyl ester was rapidly hydrolyzed, first_seen, within minutes”. In the case of `CC(C)C[C@H](NC(=O)[C@H](Cc1ccccc1)NC(=O)CNC(=O)CNC(=O)[C@H](Cc1ccc(O)cc1)NC(=O)C(C)(C)C)C(=O)O`, in data set [3], the “maximum deliverable dose relative to effective dose (13 mg/kg)” value was 50 fold. Moreover, in data set [1], the “Relative Binding … [%]” value was 68% and 68 ± 2%.

As to `CCCCCC(=O)N[C@@H](Cc1ccc(O)cc1)C(=O)NCC(=O)NCC(=O)N[C@@H](Cc1ccccc1)C(=O)N[C@@H](CC(C)C)C(=O)OC` [KK-93], the “Relative Binding … [%]” value in data set [1] was determined as 33 ± 11%. As for R^1HN-YGGFL-COOR^2 [KK-82], the cleaved bond result in data set [2] is listed as “C-terminal methyl ester was rapidly hydrolyzed, first_seen, within minutes; also recorded: Tyr-Gly; also recorded: Gly-Phe”.

On to R^1HN-YGGFL-COOR^2 [KK-14], for which the cleaved bond result in data set [2] was “C-terminal methyl ester was rapidly hydrolyzed, first_seen, within minutes”.

In the case of R^1HN-YGGFL-COOR^2 [KK-112], the cleaved bond entry in data set [2] is “C-terminal methyl ester was rapidly hydrolyzed, first_seen, within minutes”. For R^1HN-YGGFL-COOR^2, the not cleaved entry in data set [2] is given as “more than 90% of intact KK-103 after 5 h”; in data set [4] it was “more than 95% after 5 h”.

For R^1HN-YGGFL-COOR^2 [KK-93], the cleaved bond entry in data set [2] is listed as “C-terminal methyl ester was rapidly hydrolyzed, first_seen, within minutes”. As for `COC(=O)[C@H](CC(C)C)NC(=O)[C@H](Cc1ccccc1)NC(=O)CNC(=O)CNC(=O)[C@H](Cc1ccc(O)cc1)NC(=O)C(C)(C)C` [KK-102], the “Relative Binding … [%]” value in data set [1] is 70% and 70 ± 1% and 70 ± 11%. As to R^1HN-YGGFL-COOR^2 [KK-108], the cleaved bond entry in data set [2] is “C-terminal methyl ester was rapidly hydrolyzed, first_seen, within minutes”. For the molecule `C=CCCC(=O)N[C@@H](Cc1ccc(O)cc1)C(=O)NCC(=O)NCC(=O)N[C@@H](Cc1ccccc1)C(=O)N[C@@H](CC(C)C)C(=O)OC` [KK-105], the “Relative Binding … [%]” value in data set [1] is listed as 59 ± 22%.

R^1HN-YGGFL-COOR^2 [KK-102]: the cleaved bond result in data set [2] was “C-terminal methyl ester was rapidly hydrolyzed, first_seen, within minutes”.
